# Literature values, collected in US4866035A, “Dipeptidyl saccharides as host resistance enhancers in AIDS-immuno-compromised hosts and methods of use” (Merck & Co., Inc., priority 1987, dated 1989).
# Test system: AIDS or ARC patients
# Settings: ARC or AIDS-related conditions
substance,measurement,value
Interleukin 2: Protein made by white blood cells that mediates production of interferon,clinical effect in patients,not encouraging
